Assay results taken from PMC12362594, “Design, Synthesis and Preclinical Evaluation of a Brain-Permeable PET Tracer for P2Y12 Receptor Imaging in the Brain” (Journal of Medicinal Chemistry, 2025).

Amino acid sequences for entries named in this document (tags omitted). A change or cut given only in a name is not applied to a line headed by its entry.
UniProt Q9H244: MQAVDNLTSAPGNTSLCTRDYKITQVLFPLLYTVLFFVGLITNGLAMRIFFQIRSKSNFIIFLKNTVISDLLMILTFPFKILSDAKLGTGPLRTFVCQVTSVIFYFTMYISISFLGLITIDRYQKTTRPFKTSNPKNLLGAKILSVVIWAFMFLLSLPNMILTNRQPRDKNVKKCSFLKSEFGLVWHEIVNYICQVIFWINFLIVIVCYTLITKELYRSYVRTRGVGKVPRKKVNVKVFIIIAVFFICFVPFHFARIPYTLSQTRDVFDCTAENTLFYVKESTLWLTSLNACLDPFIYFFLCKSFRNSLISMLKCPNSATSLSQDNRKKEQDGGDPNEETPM

Molecular target: P2Y12R (Homo sapiens, UniProt Q9H244)
Experiment: cell-based
Conditions: IC50, [33P]2-MeSADP competitor; triplicates, mean; footnote b values: three independent experiments, mean ± SD
Description: The cell cultures were maintained in an incubator at 37 °C under a humidified and 5% CO2-conditioned atmosphere. Cells were passaged at 80% confluency. For binding assays, cells were harvested with Trypsin-EDTA (5 mL, Gibco) and resuspended in medium. The suspension was centrifuged at 1000g for 5 min and the supernatant was discarded. The cells were adjusted to assay cell concentration (2 × 10^6 cells/mL) by the addition of D-PBS and stored at 37 °C up to 1 h prior to the binding assay.
The mixture was transferred to a 96-well filter plate (1.0 μm glass fiber filter, MultiScreenHTS FB Filter Plate, Merck Millipore, Billercia, MA) and filtered with a vacuum manifold (MultiScreenHTS Vacuum Manifold, Merck Millipore, Billercia, MA). The filters were washed by the addition of cold PBS buffer (4 × 200 μL) and dried at rt for 1 h. Afterward, a punch-tip plate was mounted and the filters were separated into scintillation vials (10 mL) containing scintillation cocktail (4 mL, Rotiszint eco plus LSC-Universalcocktail). […] Bound activity was plotted as a function of ligand concentration in GraphPad Prism 8.0 (GraphPad Software, version 8.4.3., San Diego, CA).

Q: How did the IC50 turn out when CCOC(=O)c1cc([11C]#N)c(N2CC(NC(=O)NS(=O)(=O)c3ccc(Cl)s3)C2)nc1C [Compound 4, reference compound] was run?
A: The IC50 was 51 ± 23 nM.
